Source: ChEMBL document CHEMBL2346504, “Olive secoiridoids and semisynthetic bioisostere analogues for the control of metastatic breast cancer” (Bioorg Med Chem, 2013)

Experiments:
MDA-MB-231 [1] = experiment: Antimigratory activity against human MDA-MB-231 cells after 24 hrs by wound healing assay; conditions: MDA-MB-231, 24 h
MDA-MB-231 [2] = experiment: Cytotoxicity against human MDA-MB-231 cells after 24 hrs by MTT assay; conditions: MDA-MB-231, 24 h

## C/C=C(/C=O)[C@@H](CC=O)CC(=O)OCCc1ccc(O)cc1 [(-)-OLEOCANTHAL]
MDA-MB-231 [1]
  IC50: 7.5 µM
MDA-MB-231 [2]
  IC50: 15 µM
